Source: patent publication US9872861B2, “Methods of treatment using selective Bcl-2 inhibitors” (AbbVie Inc., priority 2010, dated 2018)
pKi: −log10 of the molar value.

Chains of the proteins cited; added tags and fusions are not shown.
UniProt P10415, whole entry: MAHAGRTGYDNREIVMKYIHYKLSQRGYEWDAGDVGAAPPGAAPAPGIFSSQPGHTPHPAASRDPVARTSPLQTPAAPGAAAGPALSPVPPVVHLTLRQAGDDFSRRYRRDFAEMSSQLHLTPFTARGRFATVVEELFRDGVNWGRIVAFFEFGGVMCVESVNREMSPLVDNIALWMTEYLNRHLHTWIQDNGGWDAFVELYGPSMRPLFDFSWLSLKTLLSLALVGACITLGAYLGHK

Target: Bcl-2 (Homo sapiens, UniProt P10415)
Assay: TR FRET competitive binding affinity, Bcl-2
Details: read-out: Target Affinity TR FRET, Bcl-2
Method: A comparison of the binding affinity for each of the compounds was performed to determine target affinity, as measured by Time-Resolved Fluorescence Resonance Energy Transfer (TR FRET).

pKi: 10.40
Compound: CC1(C)CCC(c2ccc(Cl)cc2)=C(CN2CCN(c3ccc(C(=O)NS(=O)(=O)c4ccc(N[C@H](CCN5CCOCC5)CSc5ccccc5)c(S(=O)(=O)C(F)(F)F)c4)cc3)CC2)C1 [Compound 2, N-(4-(4-((2-(4-chlorophenyl)-5,5-dimethyl-1-cyclohex-1-en-1-yl)methyl)piperazin-1-yl)benzoyl)-4-(((1R)-3-(morpholin-4-yl)-1-((phenylsulfanyl)methyl)propyl)amino)-3-((trifluoromethyl)sulfonyl)benzenesulfonamide, reference compound]
